In patent US10654873B2, “Cytotoxic agents and conjugates thereof” (priority 2016, dated 2020):

Tested on: JIMT-1 cells (breast carcinoma)
Assay: JIMT-1 mouse xenograft study
Type: in vivo
Settings: single dose 30 mg/kg i.v. bolus, Day 14 post treatment, NMRI nude mice

For “Kadcyla®: commercially-available ADC produced using an SMCC linker with a DM1 maytansinoid payload”, the “mean tumour volume at Day 14” value was 165 mm^3.
